In PMC7070898 (Clinical and Translational Science, 2019):

Assays:
[1] = Holter ECG, concentration-QTcF, by-time point and categorical analysis; type: in vivo, human; details: single doses 25–500 mg
[2] = Plasma pharmacokinetics, noncompartmental, SAD/MAD trial; type: in vivo, human; details: for Tmax: human, in vivo; for CL/F / Vz/F: geometric mean (CV% GM)
[3] = single dose 350 mg, part 1, N 6
[4] = single dose 500 mg, part 1, N 6

C=CC(=O)N1CCC(CNc2ncnc(N)c2-c2ccc(Oc3ccccc3)cc2)CC1 [evobrutinib]
impact of evobrutinib concentration on QTc (concentration‐QTcF analysis) [1]: did not prolong QTcF | mean terminal phase concentration as % of Cmax 24 hours postdose ([2]; higher single doses (350 and 500 mg)): < 1 % of Cmax | Tmax [2]: 30 to 60 min | Tmax ([2]; 50 mg, Tmax, single dose 50 mg, part 1, N 6, median and range): 30 min | Tmax ([2]; 75 mg, Tmax, multiple-dose study day 1, 75 mg, N 9, median and range): 30 min | Tmax ([2]; 100 mg, Tmax, single dose 100 mg, part 1, N 6, median and range): 30 min | Tmax ([2]; 200 mg, Tmax, multiple-dose study day 1, 200 mg, N 9, median and range): 30 min | Tmax ([2]; 200 mg, Tmax, multiple-dose study day 14, 200 mg once daily, N 9, median and range): 30 min | Tmax ([2]; 200 mg, Tmax, single dose 200 mg, part 1, N 6, median and range): 30 min | Tmax ([2]; 500 mg, Tmax, single dose 500 mg, part 1, N 6, median and range): 30 min | CL/F ([2]; multiple-dose study day 1, 25 mg, N 9): 3,390 (38.7) mL/minute | CL/F ([2]; multiple-dose study day 1, 75 mg, N 9): 3,850 (37.5) mL/minute | CL/F ([2]; multiple-dose study day 1, 200 mg, N 9): 3,000 (24.6) mL/minute | CL/F ([2]; single dose 25 mg, part 1, N 6): 4,000 (53.6) mL/minute | CL/F ([2]; single dose 50 mg, part 1, N 6): 2,550 (35.7) mL/minute | CL/F ([2]; single dose 100 mg, part 1, N 6): 3,840 (30.3) mL/minute | CL/F ([2]; single dose 200 mg, part 1, N 6): 3,900 (27.0) mL/minute | CL/F [2, 3]: 3,050 (41.7) mL/minute | Vz/F [2, 3]: 1,800 (136) L | CL/F [2, 4]: 2,590 (25.0) mL/minute | Vz/F [2, 4]: 1,490 (64.6) L | plasma concentration as % of Cmax within 8 hours ([2]; single dosing, part 1): < 1 % of Cmax
